ChEMBL document CHEMBL1143566, “Discovery of a potent and selective inhibitor of cyclin-dependent kinase 4/6” (J Med Chem, 2005)

Target: Cyclin-dependent kinase 2/cyclin A (Homo sapiens, UniProt P24941)

Row | IC50 [µM] | SMILES
1 | > 5 | Cc1c(Br)c(=O)n(C2CCCC2)c2nc(Nc3ccc(N4CCC(O)CC4)cn3)ncc12
2 | > 5 | CCOCCOc1cc2cnc(Nc3ccc(N4CCNCC4)cn3)nc2n(C2CCCC2)c1=O
3 | > 5 | CC(=O)c1c(C)c2cnc(Nc3ccc(N4CCOCC4)cn3)nc2n(C2CCCC2)c1=O
4 | > 5 | CC(=O)c1c(C)c2cnc(Nc3ccc(N4CCC(N)C4)cn3)nc2n(C2CCCC2)c1=O (stereo unspecified)
5 | > 5 | O=c1c(CO)cc2cnc(Nc3ccc(N4CCNCC4)cn3)nc2n1C1CCCC1
6 | > 5 | CC(=O)c1c(C)c2cnc(Nc3ccc(N4CCN(C)CC4)cn3)nc2n(C2CCCC2)c1=O
7 | > 5 | CCOC(=O)c1cc2cnc(Nc3ccc(N4CCNCC4)cn3)nc2n(C2CCCC2)c1=O
8 | > 5 | CC(=O)c1c(C)c2cnc(Nc3ccccn3)nc2n(C2CCCC2)c1=O
9 | > 5 | Cc1cc(=O)n(C2CCCC2)c2nc(Nc3ccc(N4CCNCC4)cn3)ncc12
10 | > 5 | CC(=O)c1c(C)c2cnc(Nc3ccc(N4CCNC(C)(C)C4)cn3)nc2n(C2CCCC2)c1=O
11 | > 5 | Cc1c(Br)c(=O)n(C2CCCC2)c2nc(Nc3ccc(N4CC(C)NC(C)C4)cn3)ncc12 (stereo unspecified)
12 | > 5 | CCOCc1cc2cnc(Nc3ccc(N4CCNCC4)cn3)nc2n(C2CCCC2)c1=O
13 | > 5 | COCCOCc1cc2cnc(Nc3ccc(N4CCNCC4)cn3)nc2n(C2CCCC2)c1=O
14 | > 5 | O=c1c(F)cc2cnc(Nc3ccc(N4CCNCC4)cn3)nc2n1C1CCCC1
15 | > 5 | CC(=O)c1cc2cnc(Nc3ccc(N4CCNCC4)cn3)nc2n(C2CCCC2)c1=O
16 | > 5 | CC(=O)c1c(C)c2cnc(Nc3ccc(N4CCCNCC4)cn3)nc2n(C2CCCC2)c1=O
17 | > 5 | Cc1c(Br)c(=O)n(C2CCCC2)c2nc(Nc3ccc(N4CCN(C)CC4)cn3)ncc12
18 | > 5 | COCCN(CCOC)c1ccc(Nc2ncc3c(C)c(Br)c(=O)n(C4CCCC4)c3n2)nc1
19 | > 5 | Cc1c(Br)c(=O)n(C2CCCC2)c2nc(Nc3ccc(N4CCOCC4)cn3)ncc12
20 | > 5 | Cc1c(Br)c(=O)n(C2CCCC2)c2nc(Nc3ccc(N4CCNCC4)cn3)ncc12
21 | > 5 | O=c1c(Br)cc2cnc(Nc3ccccn3)nc2n1C1CCCC1
22 | > 5 | CC(=O)c1c(C)c2cnc(Nc3ccc(N4CC(C)NC(C)C4)cn3)nc2n(C2CCCC2)c1=O (stereo unspecified)
23 | > 5 | O=c1ccc2cnc(Nc3ccc(N4CCNCC4)cn3)nc2n1C1CC1
24 | > 5 | CCOCCc1cc2cnc(Nc3ccc(N4CCNCC4)cn3)nc2n(C2CCCC2)c1=O

Row | SMILES | IC50 [µM]
25 | CC(C)n1c(=O)ccc2cnc(Nc3ccc(N4CCNCC4)cn3)nc21 | > 5
26 | Cc1c(Br)c(=O)n(C2CCCC2)c2nc(Nc3ccccn3)ncc12 | > 5
